Measurements reported in US20150283271A1, “METHOD FOR MIMICKING HUMAN CLINICAL TRIAL BY USING NON-HUMAN ANIMALS” (Crown Bioscience Inc. (Taicang), priority 2014, published 2015).

Tested on: 20 PDXs derived from 20 patients suffered from metastatic non-small cell lung cancer
Assay: Mouse clinical trial (MCT/HuTrial) of 20 PDXs with 10:10 design, Progression-Free Survival
Assay type: in vivo
Conditions: BALB/c nude mice with NSCLC PDX; 40 mg/kg iv every day x 49; PFS = time from dosing start until tumor volume reaches 800 cm^3; SPSS 20, p<0.05
Description: Based on the modified formula and preliminary experiment, the inventor designs a MCT. In the MCT design, α is set as 0.01, power of statistic is set as 0.99. According to the MCT design that the amount of the mice in the control group equates to that in the treatment group, P1 is 1/2 and P2 is 1/2. Based on the preliminary experiment and the predicted hazard of the texted agent, ρ is 0.3 and the hazard ratio is 0.65. Through the above formula, the K is calculated as 363. In view of that some mice may be censored during the MCT or some mice may never reach the end point during the MCT, the total amount of mice is set as 400. Based on the MCT design, both of the number of the mice in the control group and treatment group are 200. Considering 20 PDXs are required, 10 mice in the control group and 10 mice in the treatment group are grafted with each PDX. Therefore, MCT is a MCT of 20 PDXs with 10:10.
Species: Mus Musculus; Age: 6-8 weeks; Sex: female; Body Weight (at treatment initiation): 18-20 g; Animal supplier: Beijing HFK Bio-technology Co. Ltd.
Cetuximab®, an epidermal growth factor receptor (EGFR) inhibitor used for the treatment of metastatic colorectal cancer, metastatic non-small cell lung cancer marked by Bristol-Myers Squibb. […]
The tumor volume will be monitored regularly before randomization. […]
Tumor size will be measured by caliper twice weekly in two dimensions. […]

**Q.** Cetuximab was tested. Which “Progression-Free Survival (PFS), treatment group versus vehicle group, statistical result” value did it give?
**A.** statistically significant
